Biological target: Mu-type opioid receptor (Homo sapiens, UniProt P35372)
Format: functional, cell-based, CHO

By UniProt entry, the sequences of proteins in these tests, tags left out.
UniProt P35372, whole entry: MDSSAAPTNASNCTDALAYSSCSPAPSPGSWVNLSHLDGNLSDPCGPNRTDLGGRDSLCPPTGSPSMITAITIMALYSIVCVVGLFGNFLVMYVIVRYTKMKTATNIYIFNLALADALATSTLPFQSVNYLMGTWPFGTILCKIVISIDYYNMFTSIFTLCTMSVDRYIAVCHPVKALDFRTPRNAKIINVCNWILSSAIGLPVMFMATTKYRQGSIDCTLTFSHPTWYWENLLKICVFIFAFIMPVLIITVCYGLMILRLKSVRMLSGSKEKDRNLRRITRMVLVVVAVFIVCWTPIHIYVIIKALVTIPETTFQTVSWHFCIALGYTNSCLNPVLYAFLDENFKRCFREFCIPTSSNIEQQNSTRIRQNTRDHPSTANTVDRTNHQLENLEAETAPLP

For `COc1ccc2c3c1O[C@H]1C(=O)CC[C@@]4(NC(=O)/C=C/c5ccc(Cl)cc5)[C@@H](C2)N(CC2CC2)CC[C@]314`, the EC50 was 17.8 nM.
